The source of these data is patent publication US12291502B2, “Topoisomerase II-alpha inhibitors and methods of treating cancer using the same” (The Regents of the University of Colorado, priority 2019, dated 2025).

Amino acid sequences for entries named in this document (tags omitted).
UniProt P11388, whole entry: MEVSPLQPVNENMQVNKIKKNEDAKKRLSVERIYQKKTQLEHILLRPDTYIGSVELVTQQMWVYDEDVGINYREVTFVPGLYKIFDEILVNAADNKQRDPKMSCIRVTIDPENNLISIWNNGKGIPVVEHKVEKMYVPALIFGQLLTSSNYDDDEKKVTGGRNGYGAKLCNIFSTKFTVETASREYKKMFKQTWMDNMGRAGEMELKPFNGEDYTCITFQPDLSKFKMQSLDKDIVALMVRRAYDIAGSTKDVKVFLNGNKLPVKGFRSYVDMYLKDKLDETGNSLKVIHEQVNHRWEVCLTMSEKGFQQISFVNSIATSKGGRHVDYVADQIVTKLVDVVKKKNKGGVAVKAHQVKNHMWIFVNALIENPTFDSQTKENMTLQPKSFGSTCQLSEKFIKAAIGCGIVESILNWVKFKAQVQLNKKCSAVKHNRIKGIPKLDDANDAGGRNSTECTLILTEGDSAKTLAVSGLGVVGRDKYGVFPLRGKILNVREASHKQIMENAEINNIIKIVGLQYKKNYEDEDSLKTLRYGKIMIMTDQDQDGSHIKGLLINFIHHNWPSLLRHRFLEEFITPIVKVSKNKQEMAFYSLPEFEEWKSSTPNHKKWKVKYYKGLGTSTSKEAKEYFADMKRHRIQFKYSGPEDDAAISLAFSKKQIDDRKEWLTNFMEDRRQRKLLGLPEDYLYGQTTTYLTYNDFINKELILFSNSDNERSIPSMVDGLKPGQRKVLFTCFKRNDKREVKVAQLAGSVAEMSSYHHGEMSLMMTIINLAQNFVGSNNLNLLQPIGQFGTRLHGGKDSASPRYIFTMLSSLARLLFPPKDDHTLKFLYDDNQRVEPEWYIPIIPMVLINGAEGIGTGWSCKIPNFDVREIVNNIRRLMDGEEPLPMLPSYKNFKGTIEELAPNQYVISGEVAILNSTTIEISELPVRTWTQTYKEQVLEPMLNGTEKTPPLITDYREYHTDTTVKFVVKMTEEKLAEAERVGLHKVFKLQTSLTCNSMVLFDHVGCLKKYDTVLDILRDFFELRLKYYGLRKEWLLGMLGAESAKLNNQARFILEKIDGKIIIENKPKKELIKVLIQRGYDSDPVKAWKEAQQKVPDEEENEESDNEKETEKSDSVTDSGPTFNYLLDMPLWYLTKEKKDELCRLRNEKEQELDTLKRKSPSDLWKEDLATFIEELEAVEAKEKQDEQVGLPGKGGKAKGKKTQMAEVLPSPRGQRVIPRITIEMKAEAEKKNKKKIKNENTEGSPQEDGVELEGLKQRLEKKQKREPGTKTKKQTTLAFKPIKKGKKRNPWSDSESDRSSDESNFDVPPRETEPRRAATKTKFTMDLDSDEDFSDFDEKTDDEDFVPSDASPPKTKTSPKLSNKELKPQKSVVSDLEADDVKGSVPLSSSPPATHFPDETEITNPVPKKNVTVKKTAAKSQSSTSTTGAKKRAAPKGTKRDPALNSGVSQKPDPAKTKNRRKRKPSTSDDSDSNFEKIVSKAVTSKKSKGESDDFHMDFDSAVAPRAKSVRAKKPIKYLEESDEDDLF

Assay [1] relates to E-cadherin promoter activity (EcadPro-RFP) in SW620 cells. The assay can be described thus: EcadPro-RFP (mCherry) EMT reporter assay. The note with it: SW620 tumor organoids. Background: Reporter assays use an easily measured gene product as a stand-in for the process of interest.
The subject of assay [2] is TOP2A-dependent TCF-transcription in SW620-TOP tumor organoids. The experiment in a line: TCF (TOPflash) reporter assay in 3D tumor organoids. The format is cell-based. The note with it: read-out: % TCP inhibition IC50, Table 2, 72 hours. The method, then: TCF reporter assay in 3D Tumor organoid. Stable engineered cells containing pCDH-TOPflash-luc-EF1-puro were used to generate tumor organoid arrayed in 96-well plates and treated for 72 hours. One-Glo™ luciferase reagent and CellTiter-Glo™ 3D cell viability reagent (Promega) were used to determine the TCF reporter activity in viable cells.
After characterizing 3 and 7 as TOP2A ATP-competitive inhibitors, these compounds were next tested for their ability to inhibit TOP2A-dependent TCF-transcription using the well characterized TOPflash (TOP) luminescent reporter, which was used to generate a stably transduced SW620-TOP reporter cells as described previously (Zhou, et al., Oncogene 2016, 35:4990-9). These cells were used to generate single 3D tumor organoids (700 μm in diameter) uniformly arrayed in 96-well plates, which mimic aspects of tumor function observed in vivo. […] Like neo, the mode of action of compounds 3 and 7 also results in significant antitumor activity (FIGS. 3E-3H). […]
3D Tumor organoid TOPflash reporter assay. […] Briefly, reagents were added to the spheroids at 1:1 ratio (v:v) and the plates were placed on an orbital shaker (300 rpm) for 10 min at room temperature before the luminescence was read with Envision plate reader (PerkinElmer, MA). […]

In assay [3] the test system is SW620 tumor organoids. The assay can be described thus: 3D invasion assay. The note with it: SW620 tumor organoids treated 72 hours, viable cells incubated further 72 hours.
Assay [4] deals with Human TOP2A (Homo sapiens, UniProt P11388). The assay can be described thus: TOP2A DNA decatenation assay (kDNA, agarose gel).
For assay [5], the system named is vimentin promoter activity (VimPro-GFP) in SW620 cells. The experiment in a line: VimPro-GFP EMT reporter assay. To be noted: SW620 tumor organoids.
Assay [6] relates to SW620 tumor organoids. The experiment in a line: Tumor organoid cytotoxicity / 3D cell viability (CellTox Green). To be noted: read-out: % Viability IC50, Table 2, 72 hours.

pEC50, pIC50: −log10 of the molar value.

In the case of `COc1cc(NC(C)=O)c(O)c2nccc(-c3ccccc3NC(=O)c3ccccc3)c12`, the “E-cadherin upregulation (EcadPro-RFP), in words” value in assay [1] is recorded as “upregulation of E-cadherin”. In addition, the negative logarithm of the EC50 (pEC50) is 5.17 in assay [1] (read-out: % E-cadherin upregulation EC50, Table 2, 72 hours) and 5.17 in assay [5] (read-out: % Vimentin downregulation EC50, Table 2, 72 hours). In addition, the pIC50 in assay [2] is 5.62; in assay [4] (read-out: IC50 TOP2A inhibition, decatenation dose response), 6.00; in assay [6], < 4.52. Moreover, in assay [3], the “invasive potential, in words” value was “inhibit the invasive potential”. Besides, in assay [4] (Table 1, decatenation, 30 μM fixed concentration), the “% Inhibition TOP2A (30 μM)” value amounted to 100.0%. The “vimentin downregulation (VimPro-GFP), in words” value in assay [5] is “dose-dependent downregulation of vimentin”.

For orientation: pEC50 means the EC50 on a negative log10 scale, so that one unit is a factor of ten. What is called pIC50 is −log10 of the IC50, conventionally taken in molar units.
